We go through two compounds from patent publication EP4670733A1, “METHODS FOR PREPARING VIRAL PROTEINS AND USES THEREOF” (priority 2024, dated 2025).

The subject of the data set is A/H1N1/Michigan/45/15 X-275 (H1N1) virus strain. The data set is described as follows: Particle size by dynamic light scattering (DLS). Format: physicochemical, influenza virus. The conditions noted are these: Sample E2, compared to the No Detergent control; FIG. 2A-2F.

Take `CCCCCCCCCCCC[N+](C)(C)[O-]` [LDAO]: the particle size distribution result was “reduced the particle size distribution after splitting”.

On to `CCCCCCCCCCCCCC[N+](C)(C)[O-]` [TDAO], for which the particle size distribution result is reported as “reduced the particle size distribution after splitting”.
